The numbers were not newly measured in patent US20080032965A1, “Method for enhancing cognitive function” (priority 2006, published 2008), which cites them from elsewhere.

Sequences of proteins named here, by UniProt entry; tags and fusion partners are left off.
UniProt P28223, whole entry: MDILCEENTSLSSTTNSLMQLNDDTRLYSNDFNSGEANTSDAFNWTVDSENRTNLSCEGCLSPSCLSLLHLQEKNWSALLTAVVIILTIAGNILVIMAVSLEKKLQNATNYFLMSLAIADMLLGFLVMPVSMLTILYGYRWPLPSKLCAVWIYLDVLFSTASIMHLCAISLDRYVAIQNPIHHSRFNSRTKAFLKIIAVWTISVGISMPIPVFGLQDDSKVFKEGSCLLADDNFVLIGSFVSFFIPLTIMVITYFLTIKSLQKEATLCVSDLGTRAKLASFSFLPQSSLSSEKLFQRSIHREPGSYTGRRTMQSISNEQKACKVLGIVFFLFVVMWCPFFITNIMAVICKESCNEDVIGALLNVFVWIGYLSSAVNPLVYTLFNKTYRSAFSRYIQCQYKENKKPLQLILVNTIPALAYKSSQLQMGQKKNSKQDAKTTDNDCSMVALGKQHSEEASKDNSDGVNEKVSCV
UniProt P08908, whole entry: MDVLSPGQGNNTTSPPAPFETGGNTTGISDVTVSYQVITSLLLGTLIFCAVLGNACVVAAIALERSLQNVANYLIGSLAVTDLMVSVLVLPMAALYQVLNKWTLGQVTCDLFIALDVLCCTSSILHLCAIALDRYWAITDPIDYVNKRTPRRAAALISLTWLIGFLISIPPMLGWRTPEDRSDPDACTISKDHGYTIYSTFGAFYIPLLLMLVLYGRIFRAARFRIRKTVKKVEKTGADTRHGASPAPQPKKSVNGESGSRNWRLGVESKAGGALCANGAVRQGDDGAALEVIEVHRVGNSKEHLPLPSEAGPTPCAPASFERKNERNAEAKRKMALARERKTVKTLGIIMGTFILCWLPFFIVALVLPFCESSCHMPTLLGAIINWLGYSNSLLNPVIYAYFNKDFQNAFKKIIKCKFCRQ

Usually Ki stands for a dissociation constant, usually derived from enzyme kinetics or from competition with a known ligand.

One data set addresses 5-HT2A (Homo sapiens, UniProt P28223). The following applies: read-out: Ki (nM) 5-HT2A; Table 1; cited from earlier work.
In a further data set the target is 5-HT1A (Homo sapiens, UniProt P08908). The following applies: read-out: Ki (nM) 5-HT1A, cited from earlier work.

Where two headings read alike, the source gives them in different places.

On to `O=c1c2ccccc2ncn1CCCCN1CCN(c2cccc(Cl)c2)CC1`, for which the Ki at 5-HT2A is 68 nM; at 5-HT1A (Table 1), 50 nM. For the molecule `O=c1c2ccccc2ncn1CCCN1CCN(c2cccc(Cl)c2)CC1`, the Ki was 16 nM on 5-HT2A and 253 nM at 5-HT1A (Table 1).

Regarding `COc1ccccc1N1CCN(CCCCn2cnc3ccccc3c2=O)CC1`, the Ki on 5-HT2A is 566 nM; at 5-HT1A (Table 1) it was 36 nM. For `COc1ccccc1N1CCN(CCCCn2c(=O)c3ccccc3c(=O)n2-c2ccccc2)CC1`, the values for the Ki on 5-HT2A and on 5-HT1A (Table 1) were 375 nM and 43 nM, respectively.

Regarding `COc1ccccc1N1CCN(CCCn2c(=O)c3ccccc3c(=O)n2-c2ccccc2)CC1`, the Ki on 5-HT2A was 300 nM; at 5-HT1A (Table 1), 30 nM. As for `Nn1c(SCCCN2CCN(c3ccccc3[N+](=O)[O-])CC2)nc2sccc2c1=O`, the Ki at 5-HT1A (Table 4) is 3 nM.
